Assay results as given in patent US20060100243A1 (priority 2004, published 2006).

The chains behind the UniProt entries cited, without tags or fusion partners.
UniProt P31645, whole entry: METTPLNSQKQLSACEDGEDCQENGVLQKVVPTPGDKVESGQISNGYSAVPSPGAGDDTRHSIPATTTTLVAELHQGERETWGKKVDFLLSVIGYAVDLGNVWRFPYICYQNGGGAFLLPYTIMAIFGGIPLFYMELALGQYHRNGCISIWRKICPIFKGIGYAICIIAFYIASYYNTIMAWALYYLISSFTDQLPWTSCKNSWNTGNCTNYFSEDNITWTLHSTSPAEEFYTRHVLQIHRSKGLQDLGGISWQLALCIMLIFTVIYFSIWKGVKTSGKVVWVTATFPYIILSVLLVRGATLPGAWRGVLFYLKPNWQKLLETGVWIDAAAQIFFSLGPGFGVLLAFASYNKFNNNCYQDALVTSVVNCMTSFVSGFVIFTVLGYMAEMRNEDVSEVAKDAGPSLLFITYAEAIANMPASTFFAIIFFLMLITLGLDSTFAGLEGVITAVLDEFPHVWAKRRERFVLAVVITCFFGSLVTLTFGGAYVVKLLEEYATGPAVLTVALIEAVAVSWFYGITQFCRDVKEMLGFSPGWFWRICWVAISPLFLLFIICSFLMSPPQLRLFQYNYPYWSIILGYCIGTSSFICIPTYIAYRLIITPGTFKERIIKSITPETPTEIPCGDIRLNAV
UniProt P23975, whole entry: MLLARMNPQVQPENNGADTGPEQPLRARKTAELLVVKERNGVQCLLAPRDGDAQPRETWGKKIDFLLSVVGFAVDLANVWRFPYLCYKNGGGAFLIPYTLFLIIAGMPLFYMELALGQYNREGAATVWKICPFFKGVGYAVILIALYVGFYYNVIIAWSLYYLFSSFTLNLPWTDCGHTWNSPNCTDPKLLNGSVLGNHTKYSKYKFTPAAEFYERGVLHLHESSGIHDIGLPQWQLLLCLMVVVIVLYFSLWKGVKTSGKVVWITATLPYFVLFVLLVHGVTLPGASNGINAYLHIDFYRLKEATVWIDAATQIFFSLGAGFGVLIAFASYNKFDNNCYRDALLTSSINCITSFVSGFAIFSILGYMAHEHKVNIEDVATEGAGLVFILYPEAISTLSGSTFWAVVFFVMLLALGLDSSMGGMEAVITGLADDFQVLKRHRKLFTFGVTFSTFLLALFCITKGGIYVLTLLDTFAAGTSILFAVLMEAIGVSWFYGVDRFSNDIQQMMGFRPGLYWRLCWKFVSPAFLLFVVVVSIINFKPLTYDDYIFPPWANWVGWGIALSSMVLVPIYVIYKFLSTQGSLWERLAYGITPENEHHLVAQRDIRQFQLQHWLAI

Legend:
[1] = target: T1, recombinant human serotonin transporter (Homo sapiens, UniProt P31645); test: biochemical; conditions: SEROTONIN [I125]-RTI-55 BINDING (Ki)
T1 construct: expressed in transfected cells

[2] = target: T2, recombinant human norepinephrine transporter (Homo sapiens, UniProt P23975); test: cell-based; conditions: RS/SR racemates table; HEK 293 cells; read-out: NOREPINEPHRINE NE REUPTAKE (IC50)
T2 construct: expressed in transfected cells

[3] = target: T2, recombinant human norepinephrine transporter; test: biochemical; conditions: HEK 293 cells, read-out: NOREPINEPHRINE [I125]-RTI-55 BINDING (Ki)

SMILES: CCCCC(c1ccc(Cl)cc1)C1CCCCN1 (single isomer, unassigned) [GG]
- Ki [1]: 4800 ± 700 nM

SMILES: Clc1ccc(C(C2CCCC2)C2CCCCN2)cc1 (single isomer, unassigned) [KK]
- IC50 [2]: 1000 ± 300 nM
- Ki ([3]; RS/SR racemates table): 3300 ± 800 nM

SMILES: Clc1ccc(C(C2CCCC2)C2CCCCN2)cc1 (single isomer, unassigned) [K]
- Ki ([3]; RR/SS racemates table): 380 ± 120 nM

Like-named read-outs stand apart in the source and are kept apart here.
